Each structure is given as a SMILES string. Where two headings read alike, the source gives them in different places.

The values that follow come from patent US10766873B2, “Zuclopenthixol hydrochloride derivatives and Ebselen derivatives as ErbB2 inhibitors” (Centre National de la Recherche Scientifique (CNRS), priority 2016, dated 2020).

Experiment [1] deals with FERM/ErbB2 interaction (Ezrin FERM domain / juxtamembrane ErbB2 peptide) (Homo sapiens, UniProt P04626). As to the kind of experiment: AlphaScreen competition assay, FERM/ErbB2 interaction. To be noted: read-out: IC50 FERM/ErbB2 interaction, tested form: HCl. Type of experiment: binding.
A further experiment concerns ΔEBM ErbB2. As to the kind of experiment: Western blot pY1248, ΔEBM ErbB2 in transfected HBMECs. The conditions noted are these: 0, 5, 10 or 20 μM, 24 h; tested form: HCl. On the procedure:
HBMECs cells were transfected with plasmids encoding WT, ΔEBM (a form of ErbB2 carrying mutations in the juxtamembrane domain and unable to bind to the Ezrin FERM domain), V659E or p95 ErbB2 and treated with 0, 5, 10 or 20 μM ZU for 24 h. ErbB2 activation was then analyzed by western blot analysis using a phospho-ErbB2-specific antibody (pY1248) and a tubulin antibody as a loading control. Histograms show optical density quantification.
In general terms: In western blotting, separated proteins are transferred to a membrane and probed.

The subject of a further experiment is MDA-MB-231. The experiment in a line: MTT cell proliferation, MDA-MB-231. The conditions noted are these: tested form: HCl. The protocol:
We then analyzed the ability of ZU and EB1 and their derivatives to decrease the ErbB2-dependent cell proliferation. We used the ErbB2-overexpressing human breast cancer cell lines SKBR3 and BT474, as well as two non ErbB2-dependent breast cancer cell lines MCF7 and MDA-MB-231 and normal human endothelial cells (HBMEC) as a control, to discard compounds presenting non-specific toxic effects.
SKBR3, BT474, MCF-7, MDA-MB-231 and HBMEC cells were treated with the compounds as indicated, and cell proliferation was determined each day during 3 days using an MTT assay. Non treated cells were included as a negative control.
The ErbB2-overexpressing gastric cancer cell line N87 and MDAMB-231, a non ErbB2-overexpressing breast cancer cell line were treated with 3, 5 or 7 μM of ZU and cell proliferation was determined each day during 3 days using an MTT assay. Non treated cells were included as a negative control.
The ErbB2-overexpressing ovarian cancer cell line SKOV3 and MDAMB-231, a non ErbB2-overexpressing breast cancer cell line were treated with 3, 5 or 7 μM of ZU and cell proliferation was determined each day during 3 days using an MTT assay. Non treated cells were included as a negative control.

A further experiment has as its system N87. The experiment in a line: Soft agar colony formation, N87. The conditions noted are these: 5 or 10 μM, 6 weeks; tested form: HCl. On the procedure: A bottom layer of 0.8% agarose in DMEM supplemented with 20% SVF and penicillin/streptomycin was added to 24 well plates before seeding 15.10^3 N87 cells/well in a 0.6% agarose top layer. Cells were left untreated or treated with 5 or 10 μM ZU or 5 μM AG1478 (a non-specific ErbB2 kinase inhibitor) as a positive control. Treatments were renewed 3 times a week. After 6 weeks, the number of colonies and their size were quantified using image J software. The colony formation is illustrated for each condition. Data are presented as mean±SEM (One way ANOVA: F(3, 6)=170.9; Dunnett's Post Hoc Test ****p<0.0001).

In the next experiment the test system is SKOV3. The experiment in a line: Soft agar colony formation, SKOV3. The conditions noted are these: 5 or 10 μM, 6 weeks; tested form: HCl. The protocol: A bottom layer of 0.8% agarose in DMEM supplemented with 2% SVF and penicillin/streptomycin was added to 24 well plates before seeding 15.10^3 SKOV3 cells/well in a 0.6% agarose top layer. Cells were left untreated or treated with 5 or 10 μM ZU or 5 μM AG1478 (a non-specific ErbB2 kinase inhibitor) as a positive control. Treatments were renewed 3 times a week. After 6 weeks, the number of colonies and their size were quantified using image J software. The colony formation is illustrated for each condition. Data are presented as mean±SEM

Experiment [2] concerns the target T1, ErbB2 (Homo sapiens, UniProt P04626). As to the kind of experiment: ErbB2 activation in SKOV3 cells, dot blot (4G10). The conditions noted are these: tested form: HCl. The protocol:
The phosphotyrosine content in the ErbB2-overexpressing ovarian cancer cell line SKOV3 was analyzed by dot blot using an anti-phosphotyrosine antibody (clone 4G10). As in these cells, ErbB2 is the main phosphorylated protein, decreased in total phosphotyrosine content mainly reflected inhibition of ErbB2 activity. As a control, the non-specific ErbB2 kinase inhibitor AG1478 was used. Quantifications show the result of two independent experiments.

The target of experiment [3] is T1, ErbB2. The experiment in a line: ErbB2 activation in N87 cells, dot blot (4G10). The conditions noted are these: tested form: HCl. The protocol: The phosphotyrosine content in the ErbB2-overexpressing gastric cancer cell line N87 was analyzed by dot blot using an anti-phosphotyrosine antibody (clone 4G10). As in these cells, ErbB2 is the main phosphorylated protein, decreased in total phosphotyrosine content mainly reflected inhibition of ErbB2 activity. As a control, the non-specific ErbB2 kinase inhibitor AG1478 was used. Quantifications show the result of two independent experiments.

The test system of experiment [4] is EGFR/ErBB2 or ErbB3/ErbB2 heterodimers-dependent signalling pathways. As to the kind of experiment: Ligand-dependent ErbB2 activation (EGF or HRG) in HBMECs, western blot. To be noted: pre-treatment 1 h or 24 h; tested form: HCl. On the procedure: In physiological conditions, ErbB2 activation occurs in heterodimer with the other ErbB family members, such as the EGFR in response to EGF stimulation or ErbB3 in response to heregulin (HRG) stimulation. We therefore addressed whether ZU, EB1 and their derivatives also affected the ligand-dependent physiological ErbB2 activation.
16 h-starved HBMECs cells were pre-treated or not for 1 h or 24 h with ZU, […] and their derivatives or AG1478 before EGF (50 ng/mL) or HRG1β (100 ng/mL) stimulation for 5 minutes. The activation of EGFR/ErBB2 or ErbB3/ErbB2 heterodimers-dependent signalling pathways was then analysed by western blot experiments using pAkt, Akt, pERK, ERK or 4G10 antibodies.

Take `OCCN1CCN(CC/C=C2/c3ccccc3Sc3ccc(Cl)cc32)CC1`: the IC50 in experiment [1] (1 h) was 50 µM; in experiment [1] (24 h), 9.8 µM. Besides, the “activation of ΔEBM ErbB2 mutant (in words)” value with ΔEBM ErbB2 is “without any effect”. Moreover, in the experiment with MDA-MB-231 (5 μM), the “effect on MDA-MB-231 proliferation (in words)” value is recorded as “without any effect”. Also, the “effect on MDAMB-231 control cell line proliferation (in words)” value in the experiment with MDA-MB-231 (3, 5 and 7 μM) is “no effect”. Besides, the “inhibition of N87 microcolony formation” value with N87 came out at 50%. Besides, the “formation of SKOV3 microcolonies (in words)” value in the experiment with SKOV3 is on record as “totally inhibited”. For the same compound, the “ErbB2 activation in SKOV3 cell line (in words)” value at ErbB2 [2] is “potently decreases ErbB2 activation”. Also, on ErbB2 [3], the “ErbB2 activation in N87 cell line (in words)” value is “potently decrease ErbB2 activation”. In addition, in experiment [4], the “ligand-dependent ErbB2 activation induced by EGF or HRG stimulation (in words)” value is given as “did not block”.
